Paper PMC11012005 (International Journal of Molecular Sciences, 2024)

The chains behind the UniProt entries cited, without tags or fusion partners.
UniProt P35372, whole entry: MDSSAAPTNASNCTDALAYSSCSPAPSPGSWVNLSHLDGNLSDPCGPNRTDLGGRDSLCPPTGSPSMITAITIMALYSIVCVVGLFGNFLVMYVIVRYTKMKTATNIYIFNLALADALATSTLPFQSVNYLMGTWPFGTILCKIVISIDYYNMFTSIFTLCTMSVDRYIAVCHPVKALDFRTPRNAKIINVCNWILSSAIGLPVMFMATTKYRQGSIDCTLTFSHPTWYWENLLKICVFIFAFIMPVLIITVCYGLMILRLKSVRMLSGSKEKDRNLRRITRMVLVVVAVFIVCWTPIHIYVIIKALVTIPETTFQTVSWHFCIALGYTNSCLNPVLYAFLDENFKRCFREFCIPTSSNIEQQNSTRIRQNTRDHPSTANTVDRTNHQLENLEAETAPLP

Target: T1, human MOR (Homo sapiens, UniProt P35372)
T1 construct: expressed in transfected cells; host or cells: CHO cells (CHO-hMOR), gift of Dr. Lawrence Toll, SRI International
Assay: Radioligand competition binding, [3H]DAMGO, CHO-hMOR cell membranes
Details: read-out: Opioid Receptor Binding (Ki, nM) MOR

With C[C@@H](NC(=O)[C@@H](N)Cc1ccc(O)cc1)C(=O)N[C@@H](Cc1ccccc1)C(=O)NCC(=O)N[C@@H](Cc1ccc(O)cc1)C(=O)N1CCC[C@H]1C(=O)N[C@@H](CO)C(N)=O [Dermorphin, reference compound] the Ki was 1.89 ± 0.2 nM.
